Measured values from patent US10759791B2, “Mammalian and bacterial nitric oxide synthase inhibitors” (Northwestern University, priority 2014, dated 2020).
Values joined by “and” are separate entries in the source; they are usually repeats but may differ in a detail not shown here. Identical values can stand only once.

How the values were obtained:
[1] = molecular target: T1, rat nNOS (Rattus norvegicus (Rat), UniProt P29476); assay: Hemoglobin capture assay, Ki (Example 159); assay type: biochemical
[2] = molecular target: human nNOS (Homo sapiens (Human), UniProt P29475); assay: Hemoglobin capture assay, Ki (Example 159); assay type: biochemical; conditions: human nNOS vs human eNOS
[3] = 5 μM, 4 h
[4] = in vitro; conditions: human, plasma
[5] = molecular target: T1, rat nNOS; assay: Oxyhemoglobin NO assay, Ki (Table 9); assay type: biochemical

Cc1cc(N)nc(CCc2cncc(CCCN(C)C)c2)c1 [Compound 14k, 6-(2-(5-(3-(Dimethylamino)propyl)pyridin-3-yl)ethyl)-4-methylpyridin-2-amine]
Ki [1]: 0.025 µM
Selectivity n/e ([1]; rat nNOS vs bovine eNOS): 665
Selectivity n/i ([1]; rat nNOS vs murine iNOS): 59
Selectivity n/e (human) [2]: 1068

CNCCCc1cncc(CCc2cc(C)cc(N)n2)c1 [Compound 14j, 4-Methyl-6-(2-(5-(3-(methylamino)propyl)pyridin-3-yl)ethyl)pyridin-2-amine]
% Bound Mean ± SD [3]: 20% and 22.8 ± 4.7%
fraction unbound at 4 h, 5 μM ([4]; pH 7.4, % Bound Mean ± SD, 5 μM): 0.8
fraction unbound at 4 h, 5 μM ([4]; pH 7.4, % Bound R1, 5 μM): 0.744
fraction unbound at 4 h, 5 μM ([4]; pH 7.4, % Bound R2, 5 μM): 0.746
fraction unbound at 4 h, 5 μM ([4]; pH 7.4, % Bound R3, 5 μM): 0.826

CNCCN(C)c1cc(C#N)cc(CCc2cc(C)cc(N)n2)c1 [Compound 19c, 3-(2-(6-Amino-4-methylpyridin-2-yl)ethyl)-5-(methyl(2-(methylamino)ethyl)amino)benzonitrile]
e/n ([5]; ratio Ki eNOS to Ki rat nNOS): 1040
i/n ([5]; ratio Ki iNOS to Ki rat nNOS): 153
